## Ab-14 heavy chain CDR variants: yeast mating affinities

Antigen: PDVDLGDISGINAS, a 14-residue peptide of the SARS-CoV-2 spike HR2 region.

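AAYL49 was designed without a model: most single CDR substitutions and a random sample of double and triple ones. AlphaSeq pools MATa yeast showing the antibodies with MATalpha yeast showing the peptide. The frequency of each diploid, read from paired DNA barcodes, reflects how well the two displayed proteins bind. Scores were corrected for input abundance and mapped to Kd with protein pairs of known affinity run in the same pool. Each pool was mated in three replicate cultures.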

Parent: Ab-14, a human scFv built as VH, the linker GGGGSGGGGSGGGGS, VL. Only the CDRs of the heavy chain vary.
VH: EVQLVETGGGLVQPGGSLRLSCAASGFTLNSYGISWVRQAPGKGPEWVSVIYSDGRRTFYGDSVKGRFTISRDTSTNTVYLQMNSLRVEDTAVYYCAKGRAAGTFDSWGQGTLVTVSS
VL: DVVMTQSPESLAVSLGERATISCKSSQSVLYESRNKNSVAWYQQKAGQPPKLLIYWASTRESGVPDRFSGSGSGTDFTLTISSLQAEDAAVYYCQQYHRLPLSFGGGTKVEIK

Each variant is given by its three heavy chain CDRs, as the data file delimits them; those of the parent are GFTLNSYGIS, VIYSDGRRTFYGDSVK, GRAAGTFDS. Affinities are written as log10 Kd with Kd in nM; a lower number is a better binder. The mean shown is taken over the replicates in which the pair was detected. "ND" means that the variant was in the library but no mating with the target was seen in that replicate; the authors take this as a sign of poor binding, and no number exists.

CDR-H1,CDR-H2,CDR-H3,log10 Kd (nM) by replicate,"mean, log10 nM",signal with controls
GFTLNSYGIS,VNYSDGRYTFYGDSVK,GYAAGTFDS,ND / 4.57 / ND,4.57,2 of 9 (4.03)
GFTLNSYGIS,VIYSDGRRTMYGDSVK,RRAAGTHDS,4.47 / ND / ND,4.47,0 of 9
GFTLNSYKIW,VIYSDGRRTFYGDSNK,GRAAGTFDS,ND / ND / ND,ND,1 of 9 (3.23)
GFTLNSYGIS,VYYPDGRRTFYGDSVK,GQAAGTFDS,ND / ND / ND,ND,1 of 9 (2.58)
GFTLNSYGPW,VGYSDGRRTFYGDSVK,GRAAGTFDS,ND / ND / ND,ND,0 of 9
GFTRNSYGIS,VIYSDARRTWYGDSVK,GRAAGTFDS,ND / ND / ND,ND,0 of 9
GFVLNSYGGS,VIYSDGRRTFYGDSVK,GRAAGTFDS,ND / ND / ND,ND,2 of 9 (3.46)
SFTLNSYGIS,VIYSDGRRTFYGDSVK,GRATGTQDS,2.80 / 2.50 / 2.66,2.65,5 of 9 (4.97)
GFTLPSYGIS,VIYSDGRRTFQGDSTK,GRAAGTFDS,ND / ND / ND,ND,2 of 9 (4.25)
GFTLNSYSIS,VIYSDGRSTFYGDSVK,GNAAGTFDS,ND / ND / ND,ND,0 of 9
AFTLNSYSIS,VIYSDGRRTFYGDSVK,GRAAGTFDS,ND / ND / ND,ND,0 of 9
GFTLNSYGIS,VIYSDGARTFYGDSVK,GRAEGTFDS,4.60 / ND / ND,4.60,6 of 9 (4.35)
GFTLNSYPIS,VRYSQGRRTFYGDSVK,GRAAGTFDS,ND / ND / 4.16,4.16,4 of 9 (4.32)
GFTLNSYGIS,VIYADGRRTFYGDSVK,GRAADRFDS,-0.04 / 0.19 / 0.05,0.07,1 of 9 (3.95)
GFSLNSYGIS,VIDSDGRRTFYGDSVK,GRVAGTFDS,ND / ND / ND,ND,3 of 9 (3.57)
GFTLDSYGIS,VIYSDGRRTFYGDSVK,FRGAGTFDS,ND / ND / ND,ND,0 of 9
GFTKNSYGIV,VIYSDGRRTFYGDSVK,GRAAGTADS,5.89 / 4.21 / ND,5.05,1 of 9 (3.97)
GFTLNSYGIS,VIYHDGRRTFYGDSVK,GRAAGTFDS,0.92 / 1.23 / 1.19,1.12,1 of 9 (4.66)
GFTRNDYGIS,VIYSDGRRWFYGDSVK,GRAAGTFDS,ND / ND / 4.66,4.66,4 of 9 (4.09)
GFTLNSYGRL,VIYSDGRRTFYGDSVK,GRQAGTFDS,4.76 / ND / ND,4.76,3 of 9 (4.62)
GFTLNSYGIS,VIRSDGRRLFYGDSVT,GRAAGTFDS,ND / ND / ND,ND,0 of 9
GFFLNSYGIS,VIYSDGRRTFYGSSLK,GRAAGTFDS,ND / ND / ND,ND,0 of 9
GFTLNSYGIS,VIYSDGRRTFPGDSVK,GRAADTFPS,ND / ND / ND,ND,1 of 9 (4.41)
CFTLNSYGIS,VIYSDDNRTFYGDSVK,GRAAGTFDS,ND / ND / ND,ND,0 of 9
GFTLNSYGIS,VVYSDGATTFYGDSVK,GRAAGTFDS,ND / ND / ND,ND,0 of 9
GFELNSYGIS,VIYSDGRRPFYEDSVK,GRAAGTFDS,ND / ND / ND,ND,2 of 9 (4.59)
GFILNSYGIS,VIYSCGRRTFYGVSVK,GRAAGTFDS,3.72 / ND / ND,3.72,0 of 9
GFTLNSYGID,VIYSQGRRTFYGDSVK,DRAAGTFDS,ND / ND / ND,ND,0 of 9
GFFLVSYGIP,VIYSDGRRTFYGDSVK,GRAAGTFDS,5.00 / ND / 4.22,4.61,7 of 9 (4.18)
GFTLNSYGIS,VIYSDERDTFYGDSVD,GRAAGTFDS,ND / ND / ND,ND,0 of 9
GFTLNSTFPS,VIYSDGRRTFYGDSVK,GRAAGTFDS,ND / ND / 4.58,4.58,4 of 9 (4.98)
GFTLNSYGIS,VIYSDGRRTFYMDSVL,GRAAGTVDS,ND / ND / ND,ND,1 of 9 (3.52)
GFTLNSYGIS,PAYSDIRRTFYGDSVK,GRAAGTFDS,5.46 / 4.30 / 5.89,5.21,7 of 9 (4.85)
GFTLNSYGIS,VIYSDGRRTFYGDSVK,YCAAGTFDS,1.07 / 1.25 / 1.45,1.25,0 of 9
NFTLTSYGIS,VIYSDGRRTFYGDSVK,ARAAGTFDS,4.48 / 4.70 / ND,4.59,6 of 9 (3.89)
GFTLNSYGIS,KIYSDGRRTFYCDSVK,GRAAGCFDS,ND / 3.10 / ND,3.10,4 of 9 (4.43)
GFTLPSYGIS,VIYSDERRTFYGDSAK,GRAAGTFDS,ND / ND / ND,ND,3 of 9 (3.60)
GFLLNSYGIS,VIYSDGRRTFYYYSVK,GRAAGTFDS,ND / ND / ND,ND,1 of 9 (3.41)
GFTLNSYGIS,QIYSDGRRTFYGDSGK,GRAAGTFDS,ND / ND / ND,ND,2 of 9 (3.79)
GFTLFSYGIS,VIYSDGRHTFYGDSVK,GRAAGTFDS,3.94 / ND / ND,3.94,1 of 9 (4.01)
GFTLNSYGID,VIYSDGRRTFPGDSVK,GREAGTFDS,ND / ND / ND,ND,0 of 9
GFTFNSYGIS,VIYSDGRRTFYGDSVK,GRAAGTFDA,2.46 / 3.06 / 2.50,2.67,4 of 9 (3.94)
GFTLNSYGIS,NIYSDGRRTFGGDSVK,GRAAGDFDS,ND / 3.64 / ND,3.64,2 of 9 (4.35)
GMNLNSYGIS,VIYSDGRRTFYGDSVK,GWAAGTFDS,1.40 / 1.43 / 1.61,1.48,7 of 9 (4.31)
GDALNSYGIW,VIYSDGRRTFYGDSVK,GRAAGTFDS,ND / ND / ND,ND,0 of 9
GFTLNSYGIS,VIYSDGRRTFYGDVSK,GRAAGTFDS,6.59 / ND / ND,6.59,4 of 9 (3.75)
GFTLNSCGIS,VIYSDGRRTFYGDTVK,GRAAGTFDS,1.59 / 2.26 / 3.36,2.41,1 of 9 (3.59)
GFTLNSYGIS,VIYSDGARTFYGDSVK,GRAAGTHDV,ND / ND / ND,ND,1 of 9 (3.18)
GFTLNSKGIS,VIYSDGRRTFYGDSVH,GRAAGTIDS,ND / 2.98 / ND,2.98,0 of 9
GMTLKSYGIS,VIYSDGRRTFYGDSVK,GMAAGTFDS,1.30 / 1.78 / 1.95,1.68,2 of 9 (2.50)
GFTLNTVGIS,VIYSDGARTFYGDSVK,GRAAGTFDS,1.36 / 1.87 / ND,1.62,0 of 9
GFTLNSYAIS,VIYSDGRKTFYGDSVK,GRAVGTFDS,4.97 / 3.66 / ND,4.32,1 of 9 (5.81)

As a blank, each scFv also met three strains without target: over library AAYL49, 15% of these pairings were detected, typically at 4.06 and seldom below 2.83. Also given: how often the same scFv was detected with the empty control strains, with their mean in brackets.

Values reported by Engelhart et al. 2022, doi:10.1038/s41597-022-01779-4 (FLAb copy).